The subject of the assay is adult B. pahangi. Put plainly: Condition and activity of adult B. pahangi worms in vitro. Also on record: species or system Brugia pahangi.

In the case of `COC1=C2C[C@@H](C)C[C@H](OC)[C@H](O)[C@@H](C)/C=C(\C)[C@H](OC(N)=O)[C@@H](OC)/C=C\C=C(/C)C(=O)NC(=CC1=O)C2=O` [GA, geldanamycin], the “concentration of drug required to kill adult Brugia” value is recorded as 500 nM.

The values above are taken from article PMC2886105, “Assay Strategies for the Discovery and Validation of Therapeutics Targeting Brugia pahangi Hsp90” (PLoS Neglected Tropical Diseases, 2010).
